Measurements taken from paper PMC9107402, “Evaluation of CYP2C19 activity using microdosed oral omeprazole in humans” (European Journal of Clinical Pharmacology, 2022).
Marks after values point to notes of the source that are not given here.

Tests used:
CYP2C19 [1] = settings: human, in vivo
Experimental: This was an open-label clinical trial with fixed sequence design consisting of a total of seven inpatient study days and eight short visits for each participant.
The CYP2C19 perpetrator fluconazole (Fluconazol HEXAL® 200 mg, HEXAL) was given for 5 days in oral doses of 400 mg on day 1 and 200 mg on days 2 to 5. […] A diary was used to ensure correct intake of fluconazole and rifampicin at home.
Blood samples were centrifuged for 10 min at 2500 g and 4 °C, and separated plasma was distributed into 4 aliquots, each stored at − 20 °C until analysis.
The statistical analysis was performed using Prism 8.4 (GraphPad Software Inc., La Jolla, CA, USA).

CYP2C19 [2] = experiment: Omeprazole hydroxylation index (molar ratio omeprazole/5-OH-omeprazole in plasma at 3 h); assay type: in vivo, human; settings: for hydroxylation index, factor of variation / hydroxylation index, range: alone and during fluconazole and rifampicin

## COc1ccc2[nH]c([S+]([O-])Cc3ncc(C)c(OC)c3C)nc2c1 (stereo not drawn) [omeprazole]
CYP2C19 [1]
  relative bioavailability (Frel) of the microdose: 1.02
CYP2C19 [1]; po, 100 ug
  VZ: 28.3 L
CYP2C19 [2]; 100 µg omeprazole
  hydroxylation index, factor of variation: 419
  hydroxylation index, range: 0.2600–108.9
CYP2C19 [2]; 100 µg omeprazole, baseline, All (n = 20), geometric mean
  omeprazole hydroxylation index: 1.26
CYP2C19 [2]; 100 µg omeprazole, baseline, EM (n = 6)
  omeprazole hydroxylation index: 1.20
CYP2C19 [2]; 100 µg omeprazole, baseline, IM (n = 6)
  omeprazole hydroxylation index: 1.18
CYP2C19 [2]; 100 µg omeprazole, baseline, PM (n = 1)
  omeprazole hydroxylation index: 22.8
CYP2C19 [2]; 100 µg omeprazole, baseline, UM (n = 7)
  omeprazole hydroxylation index: 0.92
CYP2C19 [2]; 100 µg omeprazole, fluconazole, All (n = 20), geometric mean
  omeprazole hydroxylation index: 49.3*
CYP2C19 [2]; 100 µg omeprazole, fluconazole, EM (n = 6)
  omeprazole hydroxylation index: 58.4
CYP2C19 [2]; 100 µg omeprazole, fluconazole, IM (n = 6)
  omeprazole hydroxylation index: 49.2
CYP2C19 [2]; 100 µg omeprazole, fluconazole, PM (n = 1)
  omeprazole hydroxylation index: 65.1
CYP2C19 [2]; 100 µg omeprazole, fluconazole, UM (n = 7)
  omeprazole hydroxylation index: 41.0
CYP2C19 [2]; 100 µg omeprazole, rifampicin, All (n = 20), geometric mean
  omeprazole hydroxylation index: 0.55
CYP2C19 [2]; 100 µg omeprazole, rifampicin, EM (n = 6)
  omeprazole hydroxylation index: 0.51
CYP2C19 [2]; 100 µg omeprazole, rifampicin, IM (n = 6)
  omeprazole hydroxylation index: 0.54
CYP2C19 [2]; 100 µg omeprazole, rifampicin, PM (n = 1)
  omeprazole hydroxylation index: 3.70
CYP2C19 [2]; 100 µg omeprazole, rifampicin, UM (n = 7)
  omeprazole hydroxylation index: 0.41
CYP2C19 [2]; 20 mg omeprazole
  hydroxylation index, factor of variation: 278
  hydroxylation index, range: 0.1660–46.22
CYP2C19 [2]; 20 mg omeprazole, baseline, All (n = 20), geometric mean
  omeprazole hydroxylation index: 2.47
CYP2C19 [2]; 20 mg omeprazole, baseline, EM (n = 6)
  omeprazole hydroxylation index: 2.34
CYP2C19 [2]; 20 mg omeprazole, baseline, IM (n = 6)
  omeprazole hydroxylation index: 2.31
CYP2C19 [2]; 20 mg omeprazole, baseline, PM (n = 1)
  omeprazole hydroxylation index: 21.7
CYP2C19 [2]; 20 mg omeprazole, baseline, UM (n = 7)
  omeprazole hydroxylation index: 2.0
CYP2C19 [2]; 20 mg omeprazole, fluconazole, All (n = 20), geometric mean
  omeprazole hydroxylation index: 28.7*
CYP2C19 [2]; 20 mg omeprazole, fluconazole, EM (n = 6)
  omeprazole hydroxylation index: 29.8
CYP2C19 [2]; 20 mg omeprazole, fluconazole, IM (n = 6)
  omeprazole hydroxylation index: 36.6
CYP2C19 [2]; 20 mg omeprazole, fluconazole, PM (n = 1)
  omeprazole hydroxylation index: 44.0
CYP2C19 [2]; 20 mg omeprazole, fluconazole, UM (n = 7)
  omeprazole hydroxylation index: 21.8
CYP2C19 [2]; 20 mg omeprazole, rifampicin, All (n = 20), geometric mean
  omeprazole hydroxylation index: 0.50*
CYP2C19 [2]; 20 mg omeprazole, rifampicin, EM (n = 6)
  omeprazole hydroxylation index: 0.55
CYP2C19 [2]; 20 mg omeprazole, rifampicin, IM (n = 6)
  omeprazole hydroxylation index: 0.47
CYP2C19 [2]; 20 mg omeprazole, rifampicin, PM (n = 1)
  omeprazole hydroxylation index: 5.46
CYP2C19 [2]; 20 mg omeprazole, rifampicin, UM (n = 7)
  omeprazole hydroxylation index: 0.32
